Patent US20220088231A1, “RADIOIMMUNOCONJUGATES AND DNA DAMAGE AND REPAIR INHIBITOR COMBINATION THERAPY” (Fusion Pharmaceuticals Inc., priority 2018, published 2022)

Legend:
[1] = test system: Colo-205 (colorectal cancer) xenograft model; assay: In vivo efficacy/synergy study, relative tumor volume in Colo-205 xenograft model
Procedure: (§1) An in vivo efficacy study was conducted with olaparib alone as a single agent. […] Groups of animals (n=5) were dosed with olaparib (i.p.) 5 days on, 2 days off using 10-100 mg/kg doses.
(§2) Combination groups (n=5) were dosed with olaparib (i.p.) 5 days on, 2 days off, using a 50 mg/kg dose for 28 days.

[2] = test system: A549 (NSCLC) xenograft model; assay: In vivo efficacy/synergy study, relative tumor volume in A549 xenograft model; conditions: Example 1, dosing schedule 1 (FIG. 1): [225Ac]-FPI-1434 200 nCi; BAY-1895344 i.p. 20 mg/kg, 2 days on, 5 days off for 28 days, first dose 24 hours after [225Ac]-FPI-1434; evaluated up to 28 days
Procedure: as §1, §2

C[C@@H]1COCCN1c1cc(-c2ccnn2C)c2ccnc(-c3ccn[nH]3)c2n1 [BAY-1895344]
Relative tumor volume ([1]; Example 1, dosing schedule 1 (FIG. 1): [225Ac]-FPI-1434 50 nCi, BAY-1895344 i.p. 20 mg/kg, 2 days on, 5 days off for 28 days, first dose 24 hours after [225Ac]-FPI-1434, evaluated up to 28 days): did not demonstrate any reduction in reduction in tumor volume over time relative to Vehicle controls
Relative tumor volume ([1]; Example 2, dosing schedule 2 (FIG. 3): [225Ac]-FPI-1434 50 nCi, BAY-1895344 three times a week starting at 40 mg/kg, gradually reduced to 20 mg/kg, first dose 24 hours after FPI-1434, up to 28 days): demonstrated some reduction in tumor volume over time
Relative tumor volume [2]: did not demonstrate any reduction in reduction in tumor volume over time relative to Vehicle controls
